Test results: ChEMBL document CHEMBL1743201, “Casarett and Doull's Toxicology The Basic Science of Poisons, 7th edition” (2008)

By UniProt entry, the sequences of proteins in these tests, tags left out.
UniProt P05177, whole entry: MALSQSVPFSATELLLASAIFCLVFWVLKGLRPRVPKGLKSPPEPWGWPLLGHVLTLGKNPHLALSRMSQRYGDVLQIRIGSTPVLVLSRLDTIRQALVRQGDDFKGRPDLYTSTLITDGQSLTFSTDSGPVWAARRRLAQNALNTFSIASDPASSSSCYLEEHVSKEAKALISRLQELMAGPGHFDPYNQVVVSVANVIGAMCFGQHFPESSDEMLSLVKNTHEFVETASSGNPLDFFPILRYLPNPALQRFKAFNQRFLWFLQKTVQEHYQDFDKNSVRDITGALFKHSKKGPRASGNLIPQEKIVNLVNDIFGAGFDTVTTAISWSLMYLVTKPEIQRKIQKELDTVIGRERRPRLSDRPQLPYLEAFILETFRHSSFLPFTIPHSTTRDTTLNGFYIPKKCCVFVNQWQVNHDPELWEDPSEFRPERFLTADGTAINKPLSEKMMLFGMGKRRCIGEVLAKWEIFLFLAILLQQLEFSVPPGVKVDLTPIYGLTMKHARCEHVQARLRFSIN

Molecular target: Cytochrome P450 1A2 (Homo sapiens, UniProt P05177)
Test: Clinically relevant inhibitors of human liver microsomal P450 enzymes, isoform CYP1A2
Assay type: ADME
Conditions: microsomes

SMILES | Activity
O=c1cc(-c2ccccc2)oc2c1ccc1ccccc12 [ALPHA-NAPHTHOFLAVONE] | Inhibitor
Cc1nc2c([nH]1)c(=O)n(C)c(=O)n2Cc1ccco1 [FURAFYLLINE] | Inhibitor
